In patent US20050026219A1, “Process for label-free measurement of modified substrate” (Boehringer Ingelheim Pharma GmbH & Co. KG, priority 2001, published 2005):
Several values for one entry are separate records, joined by “and”; a condition that tells them apart may be missing. Equal entries are not always repeated.

Experiment: Layer thickness formation (binding) on the phospho-tyrosine-diamino-PEG 2000 sensor surface, RIfS
Settings: for Optical layer thickness (binding): EGF-RK buffer
Experimental: A conventional aminodextrane (AMD) sensor or a diamino PEG 2000 sensor is used (e.g. Schütz A., 2000; a) Piehler J., et al., 1996; Universität Tübingen, Inst. f. Physikalische and Theoretische Chemie, Germany.)
20 μl aliquots of the final solution are immediately added drop by drop to the sensor surface which is about 1 cm^2 in size, and incubated for 8 hours under DMF chamber saturation. Then the sensor is rinsed with DMF and dried in the air.
The EGF-RK buffer is used unless otherwise stated.
The buffer used is EGF-RK buffer.
The buffer used is EGF-RK buffer. As a control, buffer solution without the enzyme EGF-RK is measured.
The buffer used is EGF-RK buffer. As a control, buffer solution without EGF-RK is measured.
First, the antibody, then the kinase and the substrate are measured on their own in order to be able to evaluate any non-specific binding.

Optical layer thickness (binding) (1 Unit/50 μl + 0.01% Brij 35 (v/v)): 0.000 nm
Optical layer thickness (binding) (1 Unit/50 μl, no Brij 35): 0.829 nm and 0.627 nm
Optical layer thickness (binding) (2 Units/50 μl + 0.01% Brij 35 (v/v)): 0.000 nm
Optical layer thickness (binding) (2 Units/50 μl, no Brij 35): 1.744 nm and 1.941 nm
Optical layer thickness (binding) (3 Units/50 μl): 2.134 nm
Optical layer thickness (binding) (4 Units/50 μl): 1.358 nm
Optical layer thickness (binding) (5 Units/50 μl): 1.144 nm
Optical layer thickness, component on its own (Table 8: EGF-RK buffer with Brij 35, substrate 10 μg/50 μl, EGF-RK 0.1 Unit/50 μl, EGF 0.5 μg/50 μl): 0 nm
Optical layer thickness, component on its own (Table 9: EGF-RK buffer with Brij 35, substrate 10 μg/50 μl, EGF-RK 2 Units/50 μl): 0.183 nm
Optical layer thickness, component on its own (Table 12: EGF-RK buffer with Brij 35, Raytide EL 2 μg/50 μl, EGF-RK 0.5 Units/50 μl): 0.043 nm
Substance: EGF-RK: EGF-RK isolated from human A 431 carcinoma cells (Messrs. Sigma)
